Biological target: T1, CENP-R (human), Q13352
T1 chain: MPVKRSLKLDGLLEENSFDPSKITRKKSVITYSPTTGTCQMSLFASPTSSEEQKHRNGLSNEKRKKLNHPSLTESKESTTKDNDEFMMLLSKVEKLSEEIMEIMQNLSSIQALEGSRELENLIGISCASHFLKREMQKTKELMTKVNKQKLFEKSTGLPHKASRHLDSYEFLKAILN
Experiment: AUC
Conditions: remark: other sources report otherwise

B1: CENP-R, Q13352 1-177 (natural protein)
chain: MPVKRSLKLDGLLEENSFDPSKITRKKSVITYSPTTGTCQMSLFASPTSSEEQKHRNGLSNEKRKKLNHPSLTESKESTTKDNDEFMMLLSKVEKLSEEIMEIMQNLSSIQALEGSRELENLIGISCASHFLKREMQKTKELMTKVNKQKLFEKSTGLPHKASRHLDSYEFLKAILN
Q: B1 was tested. Which stoichiometry N did it give?
A: 4

Reference: paper PMC6162344
